We go through 1 compound from ChEMBL document CHEMBL1131649, “A novel series of N-(hexahydro-1,4-diazepin-6-yl) and N-(hexahydroazepin- 3-yl)benzamides with high affinity for 5-HT3 and dopamine D2 receptors” (Bioorg Med Chem Lett, 1998).

By UniProt entry, the sequences of proteins in these tests, tags left out.
UniProt P61169, whole entry: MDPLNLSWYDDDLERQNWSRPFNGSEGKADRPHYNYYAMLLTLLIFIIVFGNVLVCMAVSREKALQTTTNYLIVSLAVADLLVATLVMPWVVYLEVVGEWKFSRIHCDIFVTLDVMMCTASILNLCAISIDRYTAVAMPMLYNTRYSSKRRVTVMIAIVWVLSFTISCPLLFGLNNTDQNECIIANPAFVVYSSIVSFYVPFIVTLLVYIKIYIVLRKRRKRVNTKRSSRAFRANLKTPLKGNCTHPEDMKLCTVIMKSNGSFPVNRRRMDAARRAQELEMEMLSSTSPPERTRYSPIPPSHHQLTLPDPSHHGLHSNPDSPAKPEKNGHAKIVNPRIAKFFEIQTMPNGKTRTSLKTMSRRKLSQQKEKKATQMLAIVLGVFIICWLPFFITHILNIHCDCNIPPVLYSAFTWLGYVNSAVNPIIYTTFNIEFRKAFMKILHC

The target of this assay is D(2) dopamine receptor (Rattus norvegicus, UniProt P61169). Kind of assay: Binding affinity against dopamine D2 receptor in rat brain synaptic membrane using [3H]-spiperone as radioligand. It is filed as cell membranes.

One may read the IC50 as the concentration that gives 50% inhibition. The compound `COc1cc(N)c(Cl)cc1C(=O)NC1CCCCN(C)C1` (stereo unspecified) displayed a 50% inhibitory concentration (IC50) of 230 nM.
